Laboratory results: PubChem BioAssay (EPA / NIEHS)
Only a part is listed here, and it is no random draw. Inconclusive results are not listed. Activity calls are given as the source filed them. The calls were made as follows, unless noted: active = hit-call score of the fitted dose curve at least 0.9, where 1 is the maximum; inconclusive = response in the unintended direction; inactive = score below 0.9.

Amino acid sequences for entries named in this document (tags omitted).
UniProt P16581, whole entry: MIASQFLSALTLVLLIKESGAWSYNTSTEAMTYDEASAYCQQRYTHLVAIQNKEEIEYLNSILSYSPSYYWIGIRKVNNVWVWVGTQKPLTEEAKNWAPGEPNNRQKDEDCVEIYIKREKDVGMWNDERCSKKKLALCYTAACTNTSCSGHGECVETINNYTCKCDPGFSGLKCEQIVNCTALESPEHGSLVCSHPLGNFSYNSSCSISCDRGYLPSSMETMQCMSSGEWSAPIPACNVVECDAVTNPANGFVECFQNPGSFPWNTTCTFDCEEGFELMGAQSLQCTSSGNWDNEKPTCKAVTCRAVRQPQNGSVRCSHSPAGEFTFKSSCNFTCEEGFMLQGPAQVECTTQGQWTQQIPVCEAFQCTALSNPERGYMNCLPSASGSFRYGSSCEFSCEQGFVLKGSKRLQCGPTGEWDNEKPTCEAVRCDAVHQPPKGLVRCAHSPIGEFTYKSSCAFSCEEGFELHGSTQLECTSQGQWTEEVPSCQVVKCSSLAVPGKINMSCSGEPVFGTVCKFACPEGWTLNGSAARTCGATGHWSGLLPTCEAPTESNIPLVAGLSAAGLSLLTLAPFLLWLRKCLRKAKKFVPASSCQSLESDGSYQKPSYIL
UniProt P48730, whole entry: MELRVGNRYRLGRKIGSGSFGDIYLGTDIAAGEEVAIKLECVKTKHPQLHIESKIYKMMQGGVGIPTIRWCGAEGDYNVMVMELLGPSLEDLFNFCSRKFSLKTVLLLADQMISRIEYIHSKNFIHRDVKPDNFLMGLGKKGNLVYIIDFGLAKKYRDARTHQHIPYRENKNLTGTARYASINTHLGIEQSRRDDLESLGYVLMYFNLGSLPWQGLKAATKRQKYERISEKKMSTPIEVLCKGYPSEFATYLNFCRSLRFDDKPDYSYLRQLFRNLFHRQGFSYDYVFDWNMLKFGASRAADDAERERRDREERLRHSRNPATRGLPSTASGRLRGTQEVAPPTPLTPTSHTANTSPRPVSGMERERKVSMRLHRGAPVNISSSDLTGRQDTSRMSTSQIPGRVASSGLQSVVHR
UniProt Q04400, whole entry: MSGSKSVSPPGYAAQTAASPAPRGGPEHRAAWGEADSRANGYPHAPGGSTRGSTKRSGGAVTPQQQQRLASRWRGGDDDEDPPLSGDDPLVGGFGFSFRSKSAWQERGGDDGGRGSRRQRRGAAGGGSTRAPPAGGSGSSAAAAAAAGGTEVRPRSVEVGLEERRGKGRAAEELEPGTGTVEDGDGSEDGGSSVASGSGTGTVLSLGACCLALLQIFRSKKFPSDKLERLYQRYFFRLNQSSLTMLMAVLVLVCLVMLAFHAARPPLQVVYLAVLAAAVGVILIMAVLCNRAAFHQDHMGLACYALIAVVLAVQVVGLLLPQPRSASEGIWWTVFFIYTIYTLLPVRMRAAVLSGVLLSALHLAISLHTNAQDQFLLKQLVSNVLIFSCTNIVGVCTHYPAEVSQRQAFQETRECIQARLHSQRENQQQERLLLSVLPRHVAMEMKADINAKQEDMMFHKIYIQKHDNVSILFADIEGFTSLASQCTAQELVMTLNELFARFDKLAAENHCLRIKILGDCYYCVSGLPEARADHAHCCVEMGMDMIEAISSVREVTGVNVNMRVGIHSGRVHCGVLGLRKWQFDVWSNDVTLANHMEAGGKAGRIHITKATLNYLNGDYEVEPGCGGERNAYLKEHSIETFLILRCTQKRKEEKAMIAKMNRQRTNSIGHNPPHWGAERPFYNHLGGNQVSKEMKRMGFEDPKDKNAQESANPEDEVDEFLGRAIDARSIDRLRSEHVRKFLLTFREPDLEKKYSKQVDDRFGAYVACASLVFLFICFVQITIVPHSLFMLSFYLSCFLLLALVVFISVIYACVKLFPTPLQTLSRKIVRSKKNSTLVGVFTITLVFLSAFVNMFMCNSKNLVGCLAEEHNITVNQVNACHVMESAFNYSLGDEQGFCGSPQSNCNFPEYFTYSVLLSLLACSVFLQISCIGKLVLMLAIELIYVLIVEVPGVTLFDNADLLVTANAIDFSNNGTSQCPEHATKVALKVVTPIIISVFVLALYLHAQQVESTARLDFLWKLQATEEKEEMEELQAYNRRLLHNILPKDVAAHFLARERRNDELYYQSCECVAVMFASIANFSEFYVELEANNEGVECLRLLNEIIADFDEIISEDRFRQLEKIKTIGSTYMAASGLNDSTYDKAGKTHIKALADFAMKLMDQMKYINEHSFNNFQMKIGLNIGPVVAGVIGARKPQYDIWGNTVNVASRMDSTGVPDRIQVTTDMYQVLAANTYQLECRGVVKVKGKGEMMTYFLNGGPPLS
UniProt O97775, whole entry: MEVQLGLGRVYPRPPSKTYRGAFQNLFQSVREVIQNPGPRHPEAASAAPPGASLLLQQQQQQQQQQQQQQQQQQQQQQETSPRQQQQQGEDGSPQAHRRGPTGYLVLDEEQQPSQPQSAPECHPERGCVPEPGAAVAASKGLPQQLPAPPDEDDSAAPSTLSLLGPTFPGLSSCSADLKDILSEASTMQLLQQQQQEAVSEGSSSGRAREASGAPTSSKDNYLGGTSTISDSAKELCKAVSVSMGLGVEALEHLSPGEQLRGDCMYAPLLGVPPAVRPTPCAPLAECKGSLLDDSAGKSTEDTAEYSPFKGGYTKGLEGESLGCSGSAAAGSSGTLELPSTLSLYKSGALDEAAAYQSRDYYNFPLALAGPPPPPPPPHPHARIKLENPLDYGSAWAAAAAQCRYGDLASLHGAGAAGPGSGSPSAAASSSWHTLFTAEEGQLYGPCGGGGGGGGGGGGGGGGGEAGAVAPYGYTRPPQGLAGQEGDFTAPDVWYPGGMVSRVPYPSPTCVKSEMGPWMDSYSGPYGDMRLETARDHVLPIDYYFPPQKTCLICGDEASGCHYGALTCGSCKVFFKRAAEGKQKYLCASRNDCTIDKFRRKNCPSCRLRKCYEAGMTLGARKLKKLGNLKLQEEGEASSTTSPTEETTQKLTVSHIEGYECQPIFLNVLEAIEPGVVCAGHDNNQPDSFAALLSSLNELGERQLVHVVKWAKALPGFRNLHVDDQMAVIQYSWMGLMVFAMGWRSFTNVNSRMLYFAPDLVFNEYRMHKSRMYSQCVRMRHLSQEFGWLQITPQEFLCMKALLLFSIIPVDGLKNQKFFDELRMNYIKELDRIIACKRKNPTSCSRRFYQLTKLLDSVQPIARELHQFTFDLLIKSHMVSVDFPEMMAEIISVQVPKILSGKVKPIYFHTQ
UniProt P37231, whole entry: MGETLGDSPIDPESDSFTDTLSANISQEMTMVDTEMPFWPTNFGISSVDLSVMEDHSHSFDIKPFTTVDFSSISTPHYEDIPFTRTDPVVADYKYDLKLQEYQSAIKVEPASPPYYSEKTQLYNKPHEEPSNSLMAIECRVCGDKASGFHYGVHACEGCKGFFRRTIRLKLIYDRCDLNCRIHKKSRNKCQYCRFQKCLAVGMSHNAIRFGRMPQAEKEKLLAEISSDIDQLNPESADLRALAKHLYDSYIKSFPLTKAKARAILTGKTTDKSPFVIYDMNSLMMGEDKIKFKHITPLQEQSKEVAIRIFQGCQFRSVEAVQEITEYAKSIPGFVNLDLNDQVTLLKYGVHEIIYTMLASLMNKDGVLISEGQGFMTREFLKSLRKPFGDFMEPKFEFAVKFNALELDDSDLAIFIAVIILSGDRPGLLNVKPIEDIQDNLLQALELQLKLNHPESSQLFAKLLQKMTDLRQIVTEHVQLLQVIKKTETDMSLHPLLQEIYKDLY
UniProt P19793, whole entry: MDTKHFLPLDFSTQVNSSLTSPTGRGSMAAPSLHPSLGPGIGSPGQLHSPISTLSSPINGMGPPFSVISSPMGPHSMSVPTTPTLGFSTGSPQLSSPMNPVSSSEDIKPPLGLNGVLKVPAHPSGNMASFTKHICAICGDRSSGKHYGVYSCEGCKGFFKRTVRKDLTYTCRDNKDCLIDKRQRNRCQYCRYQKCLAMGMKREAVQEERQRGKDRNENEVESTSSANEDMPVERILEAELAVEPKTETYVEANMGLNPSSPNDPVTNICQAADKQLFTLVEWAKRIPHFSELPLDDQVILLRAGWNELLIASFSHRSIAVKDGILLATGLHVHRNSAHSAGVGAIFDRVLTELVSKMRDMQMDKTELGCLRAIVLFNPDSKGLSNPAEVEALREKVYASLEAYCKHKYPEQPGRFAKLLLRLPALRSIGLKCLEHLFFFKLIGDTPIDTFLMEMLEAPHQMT
UniProt P30542, whole entry: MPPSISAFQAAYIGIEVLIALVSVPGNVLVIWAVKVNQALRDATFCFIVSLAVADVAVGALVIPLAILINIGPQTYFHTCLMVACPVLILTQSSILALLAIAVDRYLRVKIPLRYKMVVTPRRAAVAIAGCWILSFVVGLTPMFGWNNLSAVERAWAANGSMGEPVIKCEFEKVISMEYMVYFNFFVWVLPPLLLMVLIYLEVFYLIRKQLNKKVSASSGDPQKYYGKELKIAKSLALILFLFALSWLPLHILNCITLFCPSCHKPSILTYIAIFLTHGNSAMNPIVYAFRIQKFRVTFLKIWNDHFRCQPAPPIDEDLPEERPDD
UniProt P21728, whole entry: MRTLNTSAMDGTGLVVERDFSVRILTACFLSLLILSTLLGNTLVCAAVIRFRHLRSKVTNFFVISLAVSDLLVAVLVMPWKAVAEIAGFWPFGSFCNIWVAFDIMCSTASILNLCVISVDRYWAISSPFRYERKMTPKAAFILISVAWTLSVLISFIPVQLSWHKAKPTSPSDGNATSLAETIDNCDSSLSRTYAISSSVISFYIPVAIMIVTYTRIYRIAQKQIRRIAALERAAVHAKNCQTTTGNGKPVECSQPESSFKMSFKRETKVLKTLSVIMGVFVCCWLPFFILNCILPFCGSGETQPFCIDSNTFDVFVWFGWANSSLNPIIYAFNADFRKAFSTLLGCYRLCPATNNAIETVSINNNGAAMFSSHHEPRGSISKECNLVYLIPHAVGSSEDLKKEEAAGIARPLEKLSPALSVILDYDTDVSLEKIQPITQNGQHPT
UniProt P37136, whole entry: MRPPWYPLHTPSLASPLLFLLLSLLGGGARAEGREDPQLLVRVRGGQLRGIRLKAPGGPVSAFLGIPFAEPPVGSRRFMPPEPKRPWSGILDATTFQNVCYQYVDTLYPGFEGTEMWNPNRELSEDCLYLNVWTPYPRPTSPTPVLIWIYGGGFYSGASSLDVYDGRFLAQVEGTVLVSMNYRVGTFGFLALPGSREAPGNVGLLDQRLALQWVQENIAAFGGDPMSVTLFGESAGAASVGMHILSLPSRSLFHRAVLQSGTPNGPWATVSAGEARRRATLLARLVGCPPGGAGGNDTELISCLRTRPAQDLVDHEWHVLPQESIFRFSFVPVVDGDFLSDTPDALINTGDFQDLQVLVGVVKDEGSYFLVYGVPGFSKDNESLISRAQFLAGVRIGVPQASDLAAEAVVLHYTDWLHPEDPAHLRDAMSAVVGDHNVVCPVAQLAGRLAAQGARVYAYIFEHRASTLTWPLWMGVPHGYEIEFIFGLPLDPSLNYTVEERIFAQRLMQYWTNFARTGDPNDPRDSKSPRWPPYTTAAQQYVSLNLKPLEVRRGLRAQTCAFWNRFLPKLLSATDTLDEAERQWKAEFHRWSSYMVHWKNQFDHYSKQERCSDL
UniProt P22303, whole entry: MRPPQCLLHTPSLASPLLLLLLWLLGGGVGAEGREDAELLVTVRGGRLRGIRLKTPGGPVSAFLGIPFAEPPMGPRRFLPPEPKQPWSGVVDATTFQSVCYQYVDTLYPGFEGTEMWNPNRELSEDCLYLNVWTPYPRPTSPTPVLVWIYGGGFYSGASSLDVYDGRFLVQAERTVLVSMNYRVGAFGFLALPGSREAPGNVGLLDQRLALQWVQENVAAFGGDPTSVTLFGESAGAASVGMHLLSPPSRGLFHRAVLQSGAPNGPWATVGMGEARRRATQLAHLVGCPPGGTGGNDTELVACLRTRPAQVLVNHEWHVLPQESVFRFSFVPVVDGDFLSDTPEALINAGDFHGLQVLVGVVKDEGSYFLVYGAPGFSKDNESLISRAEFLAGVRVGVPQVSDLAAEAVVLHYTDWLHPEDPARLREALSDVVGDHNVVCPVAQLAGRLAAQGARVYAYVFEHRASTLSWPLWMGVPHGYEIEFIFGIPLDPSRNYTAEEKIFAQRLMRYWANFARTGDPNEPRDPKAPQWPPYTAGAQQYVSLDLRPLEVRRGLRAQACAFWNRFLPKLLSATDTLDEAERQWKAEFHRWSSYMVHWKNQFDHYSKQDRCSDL

Tests used:
[1] = read-out: E-selectin (Homo sapiens) (UniProt P16581); assay: BSK_SAg_Eselectin: BioMAP Diversity Plus: SAg Assay for Eselectin Biomarker Activity (AID 2283091; active = hit-call score of the fitted dose curve at least 0.9, where 1 is the maximum; inactive = score below 0.9); settings: actives raise or lower the signal; primary human HUVEC with PBMC
How it was run: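 Human umbilical vein endothelial cells co-cultured with peripheral blood mononuclear cells, SAg system. E-selectin is measured by ELISA 24 h after dosing and fitted bidirectionally against DMSO. Cytotoxicity is checked by SRB staining of parallel cultures.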

[2] = read-out: Monokine induced gamma interferon (MIG), CXCL9 (gene 4283); assay: BSK_SAg_MIG: BioMAP Diversity Plus: SAg Assay for Monokine induced gamma interferon (MIG) Biomarker Activity (AID 2283092; active = hit-call score of the fitted dose curve at least 0.9, where 1 is the maximum; inactive = score below 0.9); settings: actives raise or lower the signal; primary human HUVEC with PBMC
How it was run: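 Values reflect bidirectional fitting of ELISA-measured MIG against DMSO vehicle, taken 24 h after dosing of a co-culture of human umbilical vein endothelial cells and peripheral blood mononuclear cells.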

[3] = BSK_SAg_PBMCCytotoxicity: PBMC Cytotoxicity Assessment in the BioMAP Diversity Plus: SAg Assay (AID 2283093; active = hit-call score of the fitted dose curve at least 0.9, where 1 is the maximum; inactive = score below 0.9;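 also: PBMC viability measured as Alamar Blue reduction fluorescence at 546/580 nm; fitted both ways against DMSO so a hit may be loss or gain of signal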); settings: primary human HUVEC with PBMC
How it was run: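 HUVEC/PBMC co-culture; PBMC exposed to chemical 1 h before SEB and TSST-1 activation (20 ng/mL each), incubated 90 h, then Alamar Blue 6 h, fluorescence 546/580 nm. Bidirectional fit versus DMSO baseline.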

[4] = read-out: Interleukin-8 (IL8), CXCL8 (gene 3576); assay: BSK_SAg_IL8: BioMAP Diversity Plus: SAg Assay for Interleukin-8 (IL8) Biomarker Activity (AID 2283094; active = hit-call score of the fitted dose curve at least 0.9, where 1 is the maximum; inactive = score below 0.9); settings: actives raise or lower the signal; primary human HUVEC with PBMC
How it was run: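 In this co-culture of human umbilical vein endothelium with peripheral blood mononuclear cells, IL-8 is assayed by ELISA at 24 h. DMSO serves as baseline for bidirectional curve fitting.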

[5] = BSK_SAg_Proliferation: Cell Proliferation Assessment in the BioMAP Diversity Plus: SAg Assay (AID 2283095; active = hit-call score of the fitted dose curve at least 0.9, where 1 is the maximum; inactive = score below 0.9;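 also: relative cell number as total protein by SRB absorbance in sub-confluent culture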); settings: primary human HUVEC with PBMC
How it was run: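 Readout is SRB-stained protein (560 nm) in a primary human HUVEC and PBMC co-culture; sub-confluent cultures are read at 96 h. Activity is fitted bidirectionally using DMSO as baseline.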

[6] = BSK_SAg_SRB: Viability Assessment in the BioMAP Diversity Plus: SAg Assay (AID 2283096; active = hit-call score of the fitted dose curve at least 0.9, where 1 is the maximum; inactive = score below 0.9;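 also: cells read one day after compound addition; hits may be either gain or loss of signal compared with DMSO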); settings: primary human HUVEC with PBMC
How it was run: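 Human umbilical vein endothelial cells co-cultured with PBMC, read 24 h after compound dosing. Total protein measured by sulforhodamine B staining (0.1% SRB after 10% TCA fixation, absorbance 560 nm); bidirectional fit versus DMSO baseline.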

[7] = target: human Casein Kinase 1-delta (CK1D), CSNK1D (gene 1453) (UniProt P48730); assay: NVS_ENZ_hCK1D: NovaScreen (NVS) Enzymatic Assay for human Casein Kinase 1-delta (CK1D) (AID 2283148)
How it was run: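 Recombinant human CK1-delta, cell-free; fluorescent substrate with electrophoretic mobility-shift separation of product, read 1 h after dosing. Single 25 uM duplicate screen, then concentration-response up to 50 uM; loss of signal vs DMSO.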

[8] = target: rat Adenylate Cyclase, Forskolin Stimulated, Adcy5 (gene 64532) (UniProt Q04400); assay: NVS_ENZ_rACFSKBinding: NovaScreen (NVS) Enzymatic Assay for rat Adenylate Cyclase, Forskolin Stimulated (AID 2283232)
How it was run: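 Rat forebrain membrane preparation, cell-free, read 1 h after dosing by filter-based scintillation counting. Primary screen in duplicate at 25 uM; actives (e.g. ≥30% inhibition) rerun in concentration-response up to 50 uM; fit versus DMSO.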

[9] = tested on: rat Monoamine Oxidase, MAO-A, Peripheral (MAOAP), gene 29253; assay: NVS_ENZ_rMAOAP: NovaScreen (NVS) Enzymatic Assay for rat Monoamine Oxidase, MAO-A, Peripheral (MAOAP) (AID 2283237)
How it was run: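 Rat liver mitochondrial membranes served as the MAO-A source, with enzyme activity measured by radiometric scintillation counting 1.17 hours after dosing. Loss of signal was fitted against DMSO; primary screen used 25 uM in duplicate, follow-up used concentration series.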

[10] = target: chimpanzee Androgen Receptor (AR), AR (gene 747460) (UniProt O97775); assay: NVS_NR_cAR: NovaScreen (NVS) Nuclear Receptor Binding Assay for chimpanzee Androgen Receptor (AR) (AID 2283346);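 also: radioligand displacement from AR measured by scintillation counting in a cell-free assay; a loss of bound radioligand signal versus DMSO counts as binding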
How it was run: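 Radioligand binding to chimpanzee AR expressed in Sf9/Sf21 cells, cell-free, measured 72 h after dosing by lysate-based scintillation counting. Loss of signal vs DMSO; initial duplicate screen at 25 uM, actives retested in concentration series.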

[11] = target: Peroxisome proliferator-activated receptor gamma (Homo sapiens) (UniProt P37231); assay: NVS_NR_hPPARg: NovaScreen (NVS) Nuclear Receptor Binding Assay for human Peroxisome Proliferator-activated Receptor gamma (PPARg) (AID 2283370)
How it was run: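 Cell-free fluorescence polarization binding to human PPARg protein, read 2 h after dosing. Primary screen in duplicate at 25 uM, actives followed in concentration series; loss of signal relative to DMSO scored.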

[12] = target: Retinoic acid receptor RXR-alpha (Homo sapiens) (UniProt P19793); assay: OT_NURR1_NURR1RXRa_0480: Odyssey Thera (OT) 8-hour HEK293T Protein Complementation Assay for Nurr1/retinoid X receptor (RXR) (AID 2283385)
How it was run: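 Compounds are applied to HEK293T cells carrying Nurr1 and RXRα linked to reporter fragments. After 8 h, fluorescence intensity reports heterodimer formation, with DMSO as baseline.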

[13] = target: human Adenosine A1 Receptor (AdoRA1), ADORA1 (gene 134) (UniProt P30542); assay: NVS_GPCR_hAdoRA1: NovaScreen (NVS) G Protein-Coupled Receptor Assay for human Adenosine A1 Receptor (AdoRA1) (AID 2283254)
How it was run: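 Each chemical is first tested twice at 25 uM, actives later in dilution series, against a radioligand bound to human cortex membranes; after 1 h, filter-retained counts are compared with DMSO controls, lower signal indicating displacement.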

[14] = target: D(1A) dopamine receptor (Homo sapiens) (UniProt P21728); assay: NVS_GPCR_hDRD1: NovaScreen (NVS) G Protein-Coupled Receptor Assay for human Dopamine Receptor D1 (DRD1) (AID 2283269)
How it was run: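 Extracted HEK293 DRD1 is incubated 1 h with compound and a tritiated or iodinated radioligand, then filtered and counted. Screening runs 25 uM in duplicate with on-plate positive and negative controls.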

[15] = target: rat Acetylcholinesterase (AChE), Ache (gene 83817) (UniProt P37136); assay: NVS_ENZ_rAChE: NovaScreen (NVS) Enzymatic Assay for rat Acetylcholinesterase (AChE) (AID 2283233)
How it was run: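 Rat brain membrane acetylcholinesterase activity measured colorimetrically 0.33 h after compound addition, loss of signal relative to DMSO. Primary screen in duplicate at 25 uM; actives re-run as concentration-response with 50 uM top concentration.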

[16] = target: human Phosphodiesterase 10 (PDE10), PDE10A (gene 10846) (UniProt Q9Y233); assay: NVS_ENZ_hPDE10: NovaScreen (NVS) Enzymatic Assay for human Phosphodiesterase 10 (PDE10) (AID 2283195)
How it was run: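 Recombinant human PDE10 with fluorescent substrate, 1 h, product separated by electrophoretic mobility shift. Loss of enzyme activity fitted against DMSO; initial screen 25 uM in duplicate, actives run to 50 uM maximum.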

[17] = target: human Adenosine A2a Receptor (AdoRA2a), ADORA2A (gene 135) (UniProt P29274); assay: NVS_GPCR_hAdoRA2a: NovaScreen (NVS) G Protein-Coupled Receptor Assay for human Adenosine A2a Receptor (AdoRA2a) (AID 2283256)
How it was run: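 Cell-free radioligand binding on membranes from HEK293 expressing the receptor; competitive displacement read 1.5 h after dosing by filter-based scintillation counting. Primary screen in duplicate at 25 uM; actives followed in concentration series, with DMSO as baseline.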

[18] = target: human CYP19A1, CYP19A1 (gene 1588) (UniProt P11511); assay: NVS_ADME_hCYP19A1: NovaScreen (NVS) CYP450-related Enzyme Activity (ADME) Assay for human CYP19A1 (AID 2283098)
How it was run: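 Recombinant enzyme in a cell-free format, read 0.5 h after dosing by fluorescence from a fluorogenic substrate. Loss of signal was fitted against acetonitrile as baseline. Primary screen in duplicate at 10 uM, actives then tested in concentration series.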

[19] = target: sheep Cyclooxygenase-1 (Cox1), PTGS1 (gene 443551) (UniProt P05979); assay: NVS_ENZ_oCOX1: NovaScreen (NVS) Enzymatic Assay for sheep Cyclooxygenase-1 (Cox1) (AID 2283239);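 also: actives reduce cyclooxygenase activity so potencies are for inhibitors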
How it was run: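 COX1 from ovine seminal vesicles, activity read colorimetrically about 0.66 h after dosing. Primary screen in duplicate at 25 uM; actives retested in concentration series; loss of signal fitted versus DMSO.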

[20] = target: human Acetylcholinesterase (AChE), ACHE (gene 43) (UniProt P22303); assay: NVS_ENZ_hAChE: NovaScreen (NVS) Enzymatic Assay for human Acetylcholinesterase (AChE) (AID 2283129)
How it was run: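 Cell-free colorimetric enzyme-activity assay; compounds read 0.33 hour after dosing, loss of signal vs DMSO baseline. Primary screen in duplicate at 25 uM single concentration, with active compounds retested in concentration series.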

O=[N+]([O-])c1ccccc1[N+](=O)[O-]
AC50 [1]: active: 3.97 µM | outcome [2]: inactive | outcome [3]: inactive | outcome [4]: inactive | AC50 [5]: active: 28.5 µM | outcome [6]: inactive | outcome [7]: inactive | outcome [8]: inactive | AC50 [9]: active: 10.1 µM | AC50 [10]: active: 18.5 µM | outcome [11]: inactive | outcome [12]: inactive

CC(C)OP(OC(C)C)OC(C)C
outcome [1]: inactive | outcome [2]: inactive | outcome [3]: inactive | outcome [4]: inactive | outcome [5]: inactive | outcome [6]: inactive | outcome [13]: inactive | outcome [14]: inactive

Cc1cccc([N+](=O)[O-])c1[N+](=O)[O-]
AC50 [15]: active: 14.2 µM

ClCCNCCCl
outcome [16]: inactive | outcome [17]: inactive

ClCCOP(OCCCl)OCCCl
outcome [18]: inactive | outcome [19]: inactive | outcome [11]: inactive

Cc1c([N+](=O)[O-])cccc1[N+](=O)[O-]
outcome [20]: inactive | AC50 [15]: active: 25.8 µM

COc1ccc([N+](=O)[O-])cc1[N+](=O)[O-]
AC50 [15]: active: 17.9 µM

Cc1ccc([N+](=O)[O-])c([N+](=O)[O-])c1
AC50 [15]: active: 12.2 µM

Cc1ccc([N+](=O)[O-])cc1[N+](=O)[O-]
outcome [20]: inactive | outcome [15]: inactive
